Biological target: Substance-P receptor (Homo sapiens, UniProt P25103)
Assay: Tested in vitro for the binding affinity towards NK1 receptor in human IM-9 cells using [125I]-labeled bolton-hunter substance P as ligand
Type: cell-based
Outline: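 IC50 from six-point concentration–response curves, each concentration in duplicate. Mean ± SEM of three separate experiments.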

Sequences of proteins named here, by UniProt entry; tags and fusion partners are left off.
UniProt P25103, whole entry: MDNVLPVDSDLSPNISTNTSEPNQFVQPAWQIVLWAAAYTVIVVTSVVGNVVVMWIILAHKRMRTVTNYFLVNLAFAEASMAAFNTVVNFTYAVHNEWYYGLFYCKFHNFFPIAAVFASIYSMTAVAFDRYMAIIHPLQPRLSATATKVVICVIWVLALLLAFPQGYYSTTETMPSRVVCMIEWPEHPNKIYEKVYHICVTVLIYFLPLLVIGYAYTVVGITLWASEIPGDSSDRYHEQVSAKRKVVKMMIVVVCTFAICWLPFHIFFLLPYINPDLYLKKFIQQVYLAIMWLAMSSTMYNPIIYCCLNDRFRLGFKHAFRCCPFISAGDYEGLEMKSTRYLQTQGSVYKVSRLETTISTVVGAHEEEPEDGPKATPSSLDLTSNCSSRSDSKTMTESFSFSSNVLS

Compound: COc1ccccc1CN[C@H]1C2C3CCCC2CN(C3)[C@H]1C(c1ccccc1)c1ccccc1
- IC50: 3.3 nM

Compound: COc1ccccc1CNC1C2CC3CCCC(C2)N3[C@H]1C(c1ccccc1)c1ccccc1 (some centres not stated)
- IC50: 4.1 nM
